Assay results from patent US20210163580A1.

Biological target: recombinant human RSPO3 protein (human) (UniProt Q9BXY4)
Assay: BLI (Octet, ForteBio); biotinylated RSPO3 on streptavidin sensors

In the case of Erbitux (antibody), the Kd is reported as 976 µM.
